Source: US4757049A, “Process for using endogenous enkephalins and endorphins to stimulate the immune system of patients with aids” (TNI Pharmaceuticals, Inc., priority 1986, dated 1988)
Where “and” joins values, the source holds several entries; their conditions need not be identical. Equal entries are not always repeated. Where two headings read alike, the source gives them in different places.

Settings: for Blood Pressure: infusion from 9:00

CSCC[C@H](NC(=O)[C@H](Cc1ccccc1)NC(=O)CNC(=O)CNC(=O)[C@@H](N)Cc1ccc(O)cc1)C(=O)O [Methionine-Enkephalin, Tyr--Gly--Gly--Phe--Met]
Blood Pressure (Volunteer 1, 0.010 mg/kg, readings in block order: 9:10, 9:20, 9:30, 10 a.m., 11 a.m., 1 p.m., 4 p.m., Second Day 8:55, 0.01 mg/kg): 100/70 and 110/70
Neurological evaluation (Volunteer 1, 10 micrograms/kg): slight nystagmus 1 to 2 hours after infusion
Blood Pressure (Volunteer 2, 0.010 mg/kg, readings in block order: 9:10, 9:20, 9:30, 10:00, 11:00, 1 p.m., 4 p.m., Next Day 8:44, 0.01 mg/kg): 130/80
Neurological evaluation (Volunteer 2, 10 micrograms per kilogram): slight nystagmus 2 hours after infusion
Neurological evaluation (Volunteer 3, 0.001 mg/kg): Slight nystagmus
Blood Pressure (Volunteer 3, 0.001 mg/kg, readings in block order: 9:10, 9:20, 9:30, 10:00, 11:00, 1 p.m., 4 p.m., Next Day 8:55, 0.001 mg/kg): 110/80
Blood Pressure (Volunteer 4, one microgram per kg, readings in block order: 9:10, 9:20, 9:30, 10:00, 11:00, 1:00 p.m., 4:00, Next Day 8:55 a.m.): 110/80 and 100/80
